The chains behind the UniProt entries cited, without tags or fusion partners.
UniProt P09874, whole entry: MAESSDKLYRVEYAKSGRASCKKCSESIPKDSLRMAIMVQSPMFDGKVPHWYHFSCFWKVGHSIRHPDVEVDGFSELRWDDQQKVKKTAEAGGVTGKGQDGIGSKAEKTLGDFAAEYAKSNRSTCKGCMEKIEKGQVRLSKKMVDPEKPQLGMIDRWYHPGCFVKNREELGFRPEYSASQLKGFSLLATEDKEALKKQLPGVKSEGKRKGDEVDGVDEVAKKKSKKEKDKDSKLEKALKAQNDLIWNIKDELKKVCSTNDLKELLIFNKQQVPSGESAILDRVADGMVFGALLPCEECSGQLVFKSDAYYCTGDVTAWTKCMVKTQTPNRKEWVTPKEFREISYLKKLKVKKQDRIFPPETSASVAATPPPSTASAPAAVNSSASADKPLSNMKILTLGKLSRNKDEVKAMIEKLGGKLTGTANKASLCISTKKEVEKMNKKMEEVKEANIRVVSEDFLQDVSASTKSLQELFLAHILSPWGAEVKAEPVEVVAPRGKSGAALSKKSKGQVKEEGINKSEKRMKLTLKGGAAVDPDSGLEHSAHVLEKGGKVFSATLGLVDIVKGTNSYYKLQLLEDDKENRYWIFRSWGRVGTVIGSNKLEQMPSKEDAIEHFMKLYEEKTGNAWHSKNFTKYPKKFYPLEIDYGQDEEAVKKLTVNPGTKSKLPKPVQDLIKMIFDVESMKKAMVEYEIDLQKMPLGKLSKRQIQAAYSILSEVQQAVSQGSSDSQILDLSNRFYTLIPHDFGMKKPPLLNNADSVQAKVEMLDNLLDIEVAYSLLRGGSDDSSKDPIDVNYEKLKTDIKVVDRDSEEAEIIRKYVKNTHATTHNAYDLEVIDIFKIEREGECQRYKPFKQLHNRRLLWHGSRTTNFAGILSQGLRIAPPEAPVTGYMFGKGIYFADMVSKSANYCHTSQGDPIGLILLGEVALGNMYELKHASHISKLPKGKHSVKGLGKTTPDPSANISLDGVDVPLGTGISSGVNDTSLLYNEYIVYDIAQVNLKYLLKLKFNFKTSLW

In ChEMBL document CHEMBL1132951, “Resistance-modifying agents. 9. Synthesis and biological properties of benzimidazole inhibitors of the DNA repair enzyme poly(ADP-ribose) polymerase” (J Med Chem, 2000):

Target: Poly [ADP-ribose] polymerase 1 (Homo sapiens, UniProt P09874)

Ki: 6 nM
Structure (SMILES): COc1cccc(-c2nc3c(C(N)=O)cccc3[nH]2)c1
